Results from patent US20250099511A1 (published 2025).
≈ marks a conversion by molar mass, not a printed value.

System: Bacteroides thetiotaomicron ATCC 29741
Test: MIC by broth microdilution (CLSI), QC strain
Settings: ATCC29741

## CCC[C@@H]1C[C@@H](C(=O)N[C@@H]([C@H]2O[C@H](SC)[C@H](O)[C@@H](O)[C@H]2O)[C@H](C)Cl)N(C)C1 [CLI, clindamycin]
  MIC: 4 µg/mL (≈ 9.41 µM)
